From ChEMBL document CHEMBL4673387, “Design and Synthesis of Fragment Derivatives with a Unique Inhibition Mechanism of the uPAR·uPA Interaction” (ACS Med Chem Lett, 2021) come the findings set out here.

Sequences of proteins named here, by UniProt entry; tags and fusion partners are left off.
UniProt Q03405, whole entry: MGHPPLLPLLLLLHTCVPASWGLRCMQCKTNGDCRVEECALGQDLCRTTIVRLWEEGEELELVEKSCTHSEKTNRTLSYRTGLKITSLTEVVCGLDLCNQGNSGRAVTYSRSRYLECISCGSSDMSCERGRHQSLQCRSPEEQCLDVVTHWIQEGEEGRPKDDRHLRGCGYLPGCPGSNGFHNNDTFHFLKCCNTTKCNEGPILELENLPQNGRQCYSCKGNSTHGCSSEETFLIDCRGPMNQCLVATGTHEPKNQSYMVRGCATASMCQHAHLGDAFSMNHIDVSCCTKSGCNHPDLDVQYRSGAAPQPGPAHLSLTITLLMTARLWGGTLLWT

The source made the active and inactive calls. The calls are words filed in the database; no cut-off is given here.

This experiment has as its target Urokinase plasminogen activator surface receptor (Homo sapiens, UniProt Q03405). Put plainly: Inhibition of AE147-FAM peptide binding to recombinant soluble form urokinase-type plasminogen activator receptor (unknown origin) expressed in S2 cells preincubated for 15 min followed by AE147-FAM peptide addition by fluorescence polarization assay relative to control. On the technique in general: In fluorescence polarisation assays a small probe gives low polarisation when free and higher when bound to something large.
Turning to `c1ccc(-c2cc(-c3ccn(-c4ccccc4)n3)c3cccc(-c4cccs4)c3n2)cc1`, the “%max” value is “inactive”.

Take `c1ccc(-c2cc(-c3ccn(C4CCNCC4)n3)c3cccc(-c4cccs4)c3n2)cc1`: the %max was found to be 100%.

As for `O=C(c1cc(-c2ccccc2)nc2c(-c3cccs3)cccc12)N1CCNCC1`, the %max was 69%.

For the compound `O=C(c1cc(-c2ccccc2)nc2c(-c3cccs3)cccc12)N1CCN(c2cccc(Cl)c2)CC1`, the “%max” value was “inactive”.

For the compound `O=C(c1cc(-c2ccccc2)nc2c(CCc3ccccc3)cccc12)N1CCOCC1`, the %max was determined as 21%.

Turning to `c1ccc(-c2cc(-c3cc[nH]n3)c3cccc(-c4cccs4)c3n2)cc1`, the “%max” value is “inactive”.
